Test results from patent US9266883B2, “Ring-fused bicyclic pyridyl derivatives as FGFR4 inhibitors” (Novartis AG, priority 2013, dated 2016).

Protein sequences, listed by entry. Tags and fused reporters are not part of them. Residues count along the entry.
UniProt P22455, 388-802: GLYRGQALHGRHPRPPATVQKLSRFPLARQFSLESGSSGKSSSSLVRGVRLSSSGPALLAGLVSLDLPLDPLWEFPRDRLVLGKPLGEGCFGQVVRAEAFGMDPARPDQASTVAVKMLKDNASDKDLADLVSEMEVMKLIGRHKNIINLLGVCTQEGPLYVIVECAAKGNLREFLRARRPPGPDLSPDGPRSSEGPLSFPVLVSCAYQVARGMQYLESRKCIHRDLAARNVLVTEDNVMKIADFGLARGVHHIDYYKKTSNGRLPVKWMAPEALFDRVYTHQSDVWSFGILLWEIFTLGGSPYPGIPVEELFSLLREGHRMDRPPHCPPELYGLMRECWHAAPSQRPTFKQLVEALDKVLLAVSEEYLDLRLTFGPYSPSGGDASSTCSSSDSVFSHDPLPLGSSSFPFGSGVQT

Target: FGFR4 (GST-FGFR4(388-802)) (Homo sapiens (Human), UniProt P22455)
Experiment: In-vitro biochemical kinase assay for FGFR4 (Caliper microfluidic mobility shift)

Going from `O=Cc1ccc2c(n1)N(C(=O)Nc1ncc(Cl)c(OC3CCOC3)n1)CCC2` (racemic) [Example 32, N-(5-chloro-4-((tetrahydrofuran-3-yl)oxy)pyrimidin-2-yl)-7-formyl-3,4-dihydro-1,8-naphthyridine-1(2H)-carboxamide] to `COCCNc1cc(NC(=O)N2CCCc3cc(N4CCC(C)C4=O)c(C=O)nc32)ncc1C#N` (racemic) [Example 261, N-(5-cyano-4-((2-methoxyethyl)amino)pyridin-2-yl)-7-formyl-6-(3-methyl-2-oxopyrrolidin-1-yl)-3,4-dihydro-1,8-naphthyridine-1(2H)-carboxamide], the IC50 rises from 6.3 nM to 12.5 nM (2-fold). The first is the more potent here.

Work on `COCCNc1cc(NC(=O)N2CCCc3cc(CN4CCN(C)C(O)C4=O)c(C=O)nc32)ncc1C#N` (racemic) [Example 229, N-(5-cyano-4-((2-methoxyethyl)amino)pyridin-2-yl)-7-formyl-6-((3-hydroxy-4-methyl-2-oxopiperazin-1-yl)methyl)-3,4-dihydro-1,8-naphthyridine-1(2H)-carboxamide] yielded an IC50 of 1.9 nM.
